Measured values taken from patent publication US9999596B2 (priority 2004, dated 2018).
Like-named read-outs stand apart in the source and are kept apart here.

Assays:
[1] = female, Fischer 344, rat, in vivo
[2] = tested on: A2780/AD (multidrug resistant) human ovarian carcinoma cells; type: cell-based

With `CC[C@@]1(O)C(=O)OCc2c1cc1n(c2=O)Cc2cc3c(CN(C)C)c(O)ccc3nc2-1` [TPT, 9-amino-dimethyl-10-hydroxycamptothecin] the “A/alpha (relative area of the distribution phase)” value ([1]; iv) was 4421.42, the “B/beta (relative area of the elimination phase)” value ([1]; iv) was 1284.06 and the A ([1]; iv, 10 mg/kg) was 3730.35 ng/mL. It also gave a B ([1]; iv, 10 mg/kg) of 146.05 ng/mL, a Beta/kel ([1]; iv, 10 mg/kg) of 0.11 h⁻¹ and a V ([1]; iv, 10 mg/kg) of 1790.14 mL. For the same compound, the Beta/kel ([1]; sc, 10 mg/kg) was 0.12 h⁻¹, the Ka ([1]; sc, 10 mg/kg) was 2.31 h⁻¹ and the V ([1]; sc, 10 mg/kg) was 6601.83 mL. For the same compound, the “Resistance Ratio” value [2] was 2.21.
